AlphaSeq binding of Ab-95 light chain variants to a spike HR2 peptide

Antigen: PDVDLGDISGINAS, a 14-residue peptide of the SARS-CoV-2 spike HR2 region.

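The starting antibody came from a phage panning campaign against this peptide. In library AAYL52, one, two or three CDR residues were substituted; doubles and triples were drawn at random. The assay is AlphaSeq: two haploid yeast populations carry antibody and antigen on their surface. Pairs that bind mate more often; barcode pairs of the diploids are counted by sequencing. The ratio of observed to expected reads was calibrated, replicate by replicate, on BCL2-family standards whose Kd was known from biolayer interferometry. There are three technical replicates.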

Each scFv is VH, the linker GGGGSGGGGSGGGGS, VL, as in the parent Ab-95, and differs from it in the CDRs of the light chain only.
VH: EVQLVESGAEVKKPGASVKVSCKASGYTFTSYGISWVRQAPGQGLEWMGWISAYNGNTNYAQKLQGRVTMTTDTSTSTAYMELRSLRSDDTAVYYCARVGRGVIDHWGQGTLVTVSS
VL: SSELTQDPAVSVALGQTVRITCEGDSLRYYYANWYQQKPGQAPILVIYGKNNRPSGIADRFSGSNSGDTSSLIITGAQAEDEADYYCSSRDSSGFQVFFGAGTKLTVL

Variants are written as CDR1, CDR2 and CDR3 of the light chain (limits as in the source). Parent: EGDSLRYYYAN, GKNNRPS, SSRDSSGFQVF.
Numbers give log10(Kd / nM), so 0 is 1 nM and 3 is 1 µM. Smaller is tighter.
Averages over replicates are reported, and they cover detected replicates only.
A pair that was not seen in that replicate is written "nd"; this usually means weak binding, but a binder can also be missed.
For reference, the parent read 2.31 as the reference entry and 2.25 as a member of this library.
Three control strains display no target. For library AAYL52, 28% of the pairings with them gave a signal, with a median of 3.91 and one signal in twenty below 2.90, so weak values seen in few replicates may be background. Also given: how often the same scFv was detected with the empty control strains.

The variant EGDSLRYYYAA | GKNNRLS | SSRDSSGFQVF showed 4.33, nd, nd (controls 3 of 9).
The variant EMDSVFYYYAN | GKNNRPS | SSRDSSGFQVF showed nd, 4.11, 4.16 (mean 4.14; controls 3 of 9).
The variant EGDSLRYTIAN | IKNNRPS | SSRDSSGFQVF showed 4.74, nd, 4.42 (mean 4.58; controls 2 of 9).
The variant HGDSLRYYYAN | GKNNRSS | GSRDSSGFQVF showed 3.11, 2.61, 2.86 (mean 2.86; controls 1 of 9).
The variant EGDSLEYYYAN | GWNNRPS | SSSDSSGFQVF showed 5.11, 3.93, 3.46 (mean 4.17; controls 4 of 9).
The variant EGDSLVYYYAN | GKCNRPS | SSRLSSGFQVF showed 4.00, 3.92, nd (mean 3.96; controls 2 of 9).
The variant EGDSLRYYYWN | GPNNRPS | SSRDCSGFQVF showed nd, 3.85, 4.01 (mean 3.93; controls 4 of 9).
The variant CGDSLRYYYAN | GKNNRPS | SMRDSSGFTVF showed 2.91, 3.27, 2.76 (mean 2.98; controls 2 of 9).
The variant EGDSLRYYYAN | GKNHRPV | SSRDSSCFQVF showed nd, 3.89, 3.41 (mean 3.65; controls 3 of 9).
The variant EGDSLRYYYAN | AKNNRPS | SSWFSSGFQVF showed 4.62, nd, nd (controls 3 of 9).
The variant EGDSHRYTYAN | VKNNRPS | SSRDSSGFQVF showed nd, nd, nd (controls 2 of 9).
The variant EGDSLRYYYAV | GKNNRPS | SSRDSSHFLVF showed 2.29, 2.79, 1.69 (mean 2.26; controls 5 of 9).
The variant EGDSLRYYYAN | GKNNRPP | SSRDSSGFFVF showed 3.56, 2.76, 2.16 (mean 2.83; controls 2 of 9).
The variant WGDSLRYYYAN | GKNNRPS | SQRDSSGFQVF showed nd, 3.24, nd (controls 1 of 9).
The variant EGDSLRYYYAN | GRNNRPS | SSRDSSSFQTF showed 3.16, 2.68, 2.70 (mean 2.85; controls 5 of 9).
The variant EGDSYRYDYAN | GKNSRPS | SSRDSSGFQVF showed 3.07, 3.80, nd (mean 3.44; controls 5 of 9).
The variant EQDSTRYYYAN | GKNNRPS | SSRDSSGWQVF showed nd, nd, nd (controls 1 of 9).
The variant EGDSLRYYYAN | TKNNKPS | SSRDSSLFQVF showed 3.65, 5.64, 3.23 (mean 4.18; controls 2 of 9).
The variant EGDSLRYYYQN | GKNNGPS | SSRDRSGFQVF showed 2.39, 2.96, 2.49 (mean 2.61; controls 6 of 9).
The variant EGDSLRYYYAN | GKDNRAS | SSRDSSGFQVF showed 2.20, 2.18, 2.01 (mean 2.13; controls 4 of 9).
The variant EPDSLRGYYAN | GKNNRPS | SSRDSSGCQVF showed 4.31, nd, nd (controls 4 of 9).
The variant EGDSLRYYYAF | GKENRPS | SSRDSSSFQVF showed nd, nd, nd (controls 3 of 9).
The variant EGDSLRYYYAE | GKNNRPS | SYRDSDGFQVF showed nd, 4.78, nd (controls 1 of 9).
The variant EGLSQRYYYAN | GKNNRGS | SSRDSSGFQVF showed 4.44, nd, nd (controls 0 of 9).
The variant YGDSLRYYYKN | GKNNRPS | SSLDSSGFQVF showed nd, nd, nd (controls 0 of 9).
The variant EGDSLRYYYAN | GLNNRPS | SMRDSSCFQVF showed 5.29, 5.41, nd (mean 5.35; controls 5 of 9).
The variant EGDSLRYYYAN | GKRNRPS | SSKDSAGFQVF showed nd, 5.49, nd (controls 1 of 9).
The variant EGDSDRYYYIN | GGNNRPS | SSRDSSGFQVF showed 2.25, 1.91, 1.97 (mean 2.04; controls 3 of 9).
The variant EGDSLRYYYAN | GKDQLPS | SSRDSSGFQVF showed 2.79, 2.64, 2.09 (mean 2.50; controls 4 of 9).
The variant EGDSLRYYYAN | GKNNRPS | SNRDSSGFQAF showed 3.43, 4.24, 3.79 (mean 3.82; controls 5 of 9).

2 of these entries, quoted again:

EGDSYRYDYAN | GKNSRPS | SSRDSSGFQVF: 3.07, 3.80, nd (mean 3.44; controls 5 of 9).
EPDSLRGYYAN | GKNNRPS | SSRDSSGCQVF: 4.31, nd, nd (controls 4 of 9).

Source: Engelhart et al. 2022 (doi:10.1038/s41597-022-01779-4), MIT Lincoln Laboratory and A-Alpha Bio; data file from the FLAb repository.